In this experiment the test system is sheep erythrocytes. The settings on record: sheep erythrocyte CC50 versus S. aureus MIC.

Take `O=c1cc(C(F)(F)F)[nH]c2cc(C(F)(F)F)cc(Nc3ccc(C(F)(F)F)cn3)c12` [Compound 111, 5-[(5-Trifluoromethylpyridin-2-yl)amino]-2,7-bis-(trifluoromethyl)quinolin-4(1H)-one]: the “therapeutic index (CC50/MIC), selectivity for S. aureus membranes over erythrocyte membranes” value is recorded as “greater than 500”.

Values taken from paper PMC9826610 (Journal of medicinal chemistry, 2022).
